This passage reports IC50 results from ChEMBL document CHEMBL1240449, “Tricyclononene carboxamide derivatives as novel anti-HIV-1 agents” (Eur J Med Chem, 2010).

The test deals with Protease (Human immunodeficiency virus 1, UniProt Q9YQ12). The test can be described thus: Inhibition of HIV1 recombinant protease. The gist of the method:
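Recombinant HIV-1 protease, purified, in 0.1 mol/L sodium acetate pH 5.0 with 0.9 mol/L NaCl, 1 mmol/L DTT, 1 mmol/L EDTA and a fluorescent peptide substrate. Graded compound concentrations were preincubated in this buffer for 20 min at 37 °C, then enzyme was added to start the reaction. Indinavir at 10 nM served as control. Percent inhibition and IC50 were calculated.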

pIC50: −log10 of the molar value.

As for `CC(C)(C)NC(=O)[C@@H]1CN(Cc2cccnc2)CCN1C[C@@H](O)C[C@@H](Cc1ccccc1)C(=O)N[C@H]1c2ccccc2C[C@H]1O`, the negative-log IC50 (pIC50) was greater than 8.00.
